Tb MetRS inh: T. brucei MetRS inhibitors, primary screen, biochemical, luminescence; purified T. brucei MetRS, ATP depletion, Kinase-Glo luminescence; inhibition, % at 11.9 µM; 0.4% of 360,000 active;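 active = inhibition above a per-plate cutoff of the control wells' mean inhibition plus 3 SD, cut at about 5.5% in these data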;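 also: 0% = DMSO wells median and 100% = median of wells with control inhibitor compound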
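Measured by: Kinase-Glo luciferase luminescence reporting remaining unconsumed ATP. Material: purified T. brucei MetRS enzyme. Doses: 11.9 µM compound single dose, 0.9% DMSO. Medium: HEPES buffer containing pyrophosphatase, BSA, spermine, DTT. Times: 15 min preincubation, 2 h reaction, all 25 °C. Reagent: methionine, ATP and bulk E. coli tRNA.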
Arr AP2 block: inhibitors of beta-arrestin/AP2 binding, primary screen, biochemical, GPCR trafficking, flow cytometry; beta-arrestin 1 C-terminal peptide binding to AP2 beta2-adaptin appendage (human); FITC-arrestin peptide / GST-AP2 beads; AP2 beta2 appendage carries R879A mutation; inhibition, % at 10 µM; 0.31% of 340,000 active;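 active = inhibition above a set limit, near 3 SD of compounds lacking own fluorescence, cut at about 54% in these data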;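 also: plate controls were DMSO wells for no effect and 5 µM unlabelled arrestin peptide for full effect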
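System: GST-AP2 R879A glutathione beads. Medium: PBS with 0.05% Tween 20 and 0.1% BSA. Also added: FITC-arrestin peptide, 50 nM. Incubation: 12 min plus 1 h, RT. Measured by: high-throughput flow cytometry of beads, ex 488, em 535 nm. Evaluation: percent drop in bead-associated FITC signal.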
Yeast UUG start: modulators of yeast start codon fidelity, primary screen, whole organism, S. cerevisiae, single point, plate reader; S. cerevisiae UUG-firefly luciferase reporter, luminescence/redox ratio; activity score, % at 18.7 µM; actives 0.13% (n = 350,000);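 active means replicate mean at a twofold rise or more, about +100% in these data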;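 further: firefly luciferase made from a UUG start codon reports start codon fidelity; reporter light over untreated wells divided by growth signal over untreated wells; some hits fall short of that in this replicate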
DSG3 Ab inh: inhibitors of pemphigus antibody binding to DSG3, primary screen, biochemical, bead-based, flow cytometry, scFv-GFP; Desmoglein-3 (Homo sapiens), P32926; DSG3-coupled beads, scFv-anti-DSG3-GFP binding; active compounds read low; binding (percent of control), % at 10 µM; 0.48% of 310,000 active; AID 588358, 2011;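 active = binding more than 3 SD below its plate's average and above zero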;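 also: hits lower antibody fragment binding to DSG3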
Rce1 inhib: yeast Rce1p protease inhibitors, primary screen, biochemical, fluorescence, cell-free homogeneous | 0.27% of 290,000 active | yeast membranes, quenched prenylated peptide cleavage fluorescence | CAAX prenyl protease 2 (Saccharomyces cerevisiae (strain ATCC 204508 / S288c)), Q03530 | calls only;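 active = fall in fluorescence gain of 50% or more versus controls, with final raw signal at or below 3038400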;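 also: plate controls were neutral control wells for no effect and wells lacking membranes for full effect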
TbMetRS confirm: T. brucei MetRS inhibitors, confirmation, biochemical, luminescence; T. brucei MetRS enzyme, luminescence (ATP depletion); AID 624412, 2012; shares compounds with Tb MetRS inh; 93% of 1,400 active; inhibition, % at 11.9 µM; in the data active = inhibition above about 7%
Jurkat tox: Jurkat T cell cytotoxicity, cytotoxicity control for T. brucei MetRS inhibitor project, luminescence, high throughput | shares compounds with Tb MetRS inh | Jurkat cells viability, ATP luminescence | inhibition, % at 8.3 µM | 12% of 1,400 active; in the data active = inhibition above about 15%;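 also: 0% = vehicle and 100% = reference inhibitor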
Tb MetRS inh FP: T. brucei MetRS inhibitors, orthogonal assay for T. brucei MetRS inhibitor project, biochemical, fluorescence polarization; purified T. brucei MetRS; AID 651607, 2012; inhibition, % at 11.9 µM; 44% of 1,400 active; shares compounds with Tb MetRS inh; in the data active = inhibition above about 17%;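 also: 0% = vehicle wells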
Starred values were filed as active, the others as inactive; i = inactive; . = no result given. An excerpt weighted towards active compounds, which were near 1.2% of everything screened.

Below each compound – Tb MetRS inh	Arr AP2 block	Yeast UUG start	DSG3 Ab inh	Rce1 inhib	TbMetRS confirm	Jurkat tox	Tb MetRS inh FP
- O=C(CSc1nc2ccc(Cl)cc2[nH]1)N1CCN(C(=O)c2ccco2)CC1
→ 12*	19	-4	103	i	14*	17*	12
- O=C(CSc1nc2ccc([N+](=O)[O-])cc2[nH]1)NC1CCCCCC1
→ 4	4	-15	109	i	.	.	.
- O=C(CSc1nc2ccc(Cl)cc2[nH]1)c1c[nH]c2ccccc12
→ 15*	-4	-6	.	i	20*	-1	25*
- O=C(CSc1nc2ccc(Cl)cc2[nH]1)NC1CCCC1
→ 14*	1	-20	109	i	33*	1	14
- Cc1ccc2nc(SCC(=O)N3CCN(C(=O)c4ccco4)CC3)[nH]c2c1
→ 1	10	-2	111	i	.	.	.
- O=C(CSc1nc2ncc(Cl)cc2[nH]1)c1c[nH]c2ccccc12
→ 1	-2	-7	94	i	.	.	.
- CO[C@@H]1CN(C)C(=O)c2ccc(NC(C)=O)cc2OC[C@H](C)N(C(=O)CN2CCOCC2)C[C@@H]1C
→ .	.	-16	.	.	.	.	.
- C[C@@H]1CN([C@H](C)CO)C(=O)c2cccc(N(C)C)c2O[C@H]1CN(C)Cc1ccc(Cl)c(Cl)c1
→ .	.	1	.	.	.	.	.
- Cc1ccc2nc(C)c(CN3CCN(c4ccc([N+](=O)[O-])cc4Cl)CC3)n2c1
→ 26*	-2	-2	107	i	44*	47*	25*
- O=C(Nc1ccc(F)cc1)Nc1cc(S(=O)(=O)N2CCOCC2)ccc1N1CCCC1
→ 11*	2	.	105	i	27*	7	13
- O=C(Nc1ccccc1)Nc1cc(S(=O)(=O)N2CCOCC2)ccc1N1CCCC1
→ 8.5*	-1	.	79	i	20*	3	12
- CCNC(=O)Nc1cc(S(=O)(=O)N2CCOCC2)ccc1N1CCCCC1
→ 0	.	0	108	.	.	.	.
- O=C(Nc1ccc(Cl)cc1)Nc1cc(S(=O)(=O)N2CCOCC2)ccc1N1CCCC1
→ 38*	-4	.	103	i	60*	-4	35*
- COc1ccc(S(=O)(=O)Nc2ccc3c(c2)C(=O)N([C@@H](C)CO)C[C@@H](C)[C@@H](CN(C)C(=O)Cc2ccccc2)OCCCC[C@@H](C)O3)cc1
→ .	.	6	.	.	.	.	.
- CCCCCCC#Cc1cncc(C(=O)NNC(=O)Nc2cc(Cl)cc(Cl)c2)c1
→ 0	9	-6	102	i	.	.	.

Ordered by the number under DSG3 Ab inh (descending): some entries from above.
smiles,Tb MetRS inh,Arr AP2 block,Yeast UUG start,DSG3 Ab inh,Rce1 inhib,TbMetRS confirm,Tb MetRS inh FP
Cc1ccc2nc(C)c(CN3CCN(c4ccc([N+](=O)[O-])cc4Cl)CC3)n2c1,26*,-2,-2,107,i,44*,25*
O=C(Nc1ccc(Cl)cc1)Nc1cc(S(=O)(=O)N2CCOCC2)ccc1N1CCCC1,38*,-4,.,103,i,60*,35*
O=C(Nc1ccccc1)Nc1cc(S(=O)(=O)N2CCOCC2)ccc1N1CCCC1,8.5*,-1,.,79,i,20*,12

An excerpt of these results, comma-delimited:
SMILES,Tb MetRS inh,Arr AP2 block,Yeast UUG start,DSG3 Ab inh,Rce1 inhib,TbMetRS confirm,Jurkat tox,Tb MetRS inh FP
O=C(Nc1ccc(Cl)cc1)Nc1cc(S(=O)(=O)N2CCOCC2)ccc1N1CCCC1,38*,-4,.,103,i,60*,-4,35*
COc1ccc(S(=O)(=O)Nc2ccc3c(c2)C(=O)N([C@@H](C)CO)C[C@@H](C)[C@@H](CN(C)C(=O)Cc2ccccc2)OCCCC[C@@H](C)O3)cc1,.,.,6,.,.,.,.,.

Additional compounds
Below each compound – Tb MetRS inh	Arr AP2 block	Yeast UUG start	DSG3 Ab inh	Rce1 inhib	TbMetRS confirm	Jurkat tox	Tb MetRS inh FP
- CCCCC#Cc1cncc(C(=O)NN)c1
→ 5.7*	-9	.	116	i	3	6	6
- Cc1noc(C)c1S(=O)(=O)Nc1ccc2c(c1)C(=O)N([C@H](C)CO)C[C@@H](C)[C@H](CN(C)C(=O)CCC(F)(F)F)OCCCC[C@@H](C)O2
→ .	.	22	.	.	.	.	.
- O=C(c1cnccn1)N1CCc2c([nH]c3ccccc23)C1c1cccc(Cl)c1 (stereo not given)
→ 7.0*	2	-14	96	i	10*	8	2
- O=C(C[C@H]1C=C[C@H](NS(=O)(=O)c2ccc(F)cc2)[C@@H](CO)O1)N1CCC(Cc2ccccc2)CC1
→ .	.	0	.	.	.	.	.
- CCSc1nsc(NC(=O)Nc2ccccc2F)n1
→ 7.0*	7	-2	101	i	13*	5	6
- CCSc1nsc(NC(=O)Nc2cccc(OC)c2)n1
→ 0	9	-15	103	i	.	.	.
- CO[C@@H]1CN(C)C(=O)c2cc(NS(=O)(=O)c3ccc(Cl)cc3)ccc2OC[C@@H](C)N(C)C[C@H]1C
→ .	.	-3	.	.	.	.	.
- O=C(/C=C\c1cn(-c2ccccc2)nc1-c1ccccc1)Nc1nccs1
→ 0	44	.	96	i	.	.	.
- CC(=O)NS(=O)(=O)c1ccc(NC(=O)/C=C/c2cn(-c3ccccc3)nc2-c2ccccc2)cc1
→ 51*	19	6	97	i	49*	-4	42*
- Oc1[nH]c(=S)sc1C=C1N=c2ccccc2=N1
→ 6.5*	0	3	105	i	15*	5	6
- O=C(C[C@H]1CC[C@@H]2[C@H](COC[C@H](O)CN2Cc2ccc(F)cc2)O1)NCCc1ccccc1
→ .	.	-1	.	.	.	.	.
- O=C(c1ccccc1)c1c[nH]c(C(=O)NNc2cccc(Cl)n2)c1
→ 0	9	.	102	i	.	.	.
- O=C(c1ccc(Cl)cc1)c1c[nH]c(C(=O)NNc2cccc(Cl)n2)c1
→ 22*	20	.	100	i	28*	-7	14
- Cc1ccccc1/C=N/Nc1ccnc2cc(Cl)ccc12
→ 0	20	2	111	i	.	.	.
- Oc1ccc(/C=N/Nc2ccnc3cc(Cl)ccc23)c(O)c1
→ 14*	-9	-2	87	i	22*	55*	47*

(cont.)
Below each compound – Tb MetRS inh	Arr AP2 block	Yeast UUG start	DSG3 Ab inh	Rce1 inhib	TbMetRS confirm	Jurkat tox	Tb MetRS inh FP
- CO[C@@H]1CN(C)C(=O)c2cc(NC(=O)Nc3ccccc3)ccc2OC[C@H](C)N(C(=O)CN(C)C)C[C@H]1C
→ .	.	-2	.	.	.	.	.
- C[C@@H]1CN([C@H](C)CO)C(=O)c2cc(NS(=O)(=O)c3ccccc3)ccc2O[C@@H](C)CCCCO[C@H]1CN(C)C(=O)Nc1ccc2c(c1)OCO2
→ .	.	6	.	.	.	.	.
- CCN(C(=O)CSc1nnc(-c2ccccc2Br)o1)C1CCS(=O)(=O)C1 (stereo not given)
→ -1	14	.	102	i	.	.	.
- CCN(C(=O)CSc1nnc(-c2c[nH]c3ccccc23)o1)C1CCS(=O)(=O)C1 (stereo not given)
→ 7.3*	15	3	103	i	13*	-4	12
- C[C@@H]1CN([C@H](C)CO)C(=O)c2cc(C#CC(C)(C)O)cnc2O[C@H]1CN(C)C(=O)CN(C)C
→ .	.	4	.	.	.	.	.
- CNC(=S)NNC(=O)c1cccc(C(F)(F)F)c1
→ -1	1	-14	98	i	.	.	.
- C=CCNC(=S)NNC(=O)c1ccc(=O)n(Cc2ccc(Cl)cc2Cl)c1
→ 34*	-10	-20	95	i	44*	6	32*
- CCNC(=S)NNC(=O)c1ccc(=O)n(Cc2ccccc2)c1
→ 22*	0	-7	103	i	37*	1	22*
